# Data from patent US11090304B2 (Amgen Inc., priority 2018, dated 2021).
# Chains of the proteins cited; added tags and fusions are not shown. Lines headed by an entry give the natural chain unless they say otherwise; changes in a name come on top.
# UniProt P01116: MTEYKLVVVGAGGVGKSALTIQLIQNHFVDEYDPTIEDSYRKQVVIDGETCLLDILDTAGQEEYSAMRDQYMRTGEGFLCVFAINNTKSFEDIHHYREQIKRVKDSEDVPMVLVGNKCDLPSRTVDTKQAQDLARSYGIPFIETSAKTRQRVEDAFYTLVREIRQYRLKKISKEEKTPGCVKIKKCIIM
# Legend:
# [1] = biological target: GDP-bound KRAS protein (aa 1-169), containing both G12C and C118A amino acid substitutions (Homo sapiens, UniProt P01116, C118A/G12C); assay: Coupled nucleotide exchange assay (SOS-mediated, AlphaScreen); type: biochemical
# [2] = tested on: Phosphorylation of ERK1/2 in MIA PaCa-2 cells; assay: Phospho-ERK1/2 MSD assay in MIA PaCa-2 cells; type: cell-based; conditions: Homo sapiens, MIA PaCa-2, 2 h, read-out: p-ERK IC50 (2 h; MIA PaCa-2)
# Procedure: For compounds in Table 89, the following assay conditions were employed:
# Phospho-ERK1/2 MSD Assay:
# Sixteen hours prior to compound treatment, MIA PaCa-2 or A549 cells were seeded in 96-well cell culture plates at a density of 25,000 cells/well and incubated at 37° C., 5% CO2. A compound dose-response titration was diluted in growth media, added to appropriate wells of a cell culture plate, and then incubated at 37° C., 5% CO2 for 2 or 4 hours (see Table 15). Following compound treatment, cells were stimulated with 10 ng/mL EGF (Roche 11376454001) for 10 min, washed with ice-cold Dulbecco's phosphate-buffered saline, no Ca^2+ or Mg^2+ (ThermoFisher Scientific 14190144), and then lysed in RIPA buffer (50 mM Tris-HCl pH 7.5, 1% Igepal, 0.5% sodium deoxycholate, 150 mM NaCl, and 0.5% sodium dodecyl sulfate) containing protease inhibitors (Roche 4693132001) and phosphatase inhibitors (Roche 4906837001). Phosphorylation of ERK1/2 in compound-treated lysates was assayed using Phospho-ERK1/2 Whole Cell Lysate kits (Meso Scale Discovery K151DWD) according to the manufacturer's protocol. Assay plates were read on a Meso Scale Discovery Sector Imager 6000, and data were analyzed using a 4-parameter logistic model to calculate IC50 values.
Structure (SMILES),Coupled exchange IC50 (5 min) [1],IC50 [2]
"C=CC(=O)N1CCN(c2nc(=O)n(-c3c(C)ccnc3CCC)c3nc(-c4c(O)cccc4F)c(F)cc23)[C@@H](C)C1 [Example 58-2, 6-fluoro-7-(2-fluoro-6-hydroxyphenyl)-4-((2S)-2-methyl-4-(2-propenoyl)-1-piperazinyl)-1-(4-methyl-2-propyl-3-pyridinyl)pyrido[2,3-d]pyrimidin-2(1H)-one]",0.754 | nda μM,556 nM
"C=CC(=O)N1CCN(c2nc(=O)n(-c3c(C)ccnc3CCC)c3nc(-c4c(O)cccc4F)c(F)cc23)[C@@H](C)C1 (single isomer, unassigned) [Example 58-2-2]",1.96 | nda μM,–
"C=CC(=O)N1CCN(c2nc(=O)n(-c3c(C)ccnc3CCC)c3nc(-c4c(O)cccc4F)c(F)cc23)[C@@H](C)C1 (single isomer, unassigned) [Example 58-2-1]",0.487 | nda μM,399 nM
